From ChEMBL document CHEMBL4028801, “A multifactorial approach to hepatobiliary transporter assessment enables improved therapeutic compound development” (Toxicol Sci, 2013)

The chains behind the UniProt entries cited, without tags or fusion partners. Where a name states a change or a piece, a line headed by the entry shows the natural chain unless it says otherwise.
UniProt O95342, whole entry: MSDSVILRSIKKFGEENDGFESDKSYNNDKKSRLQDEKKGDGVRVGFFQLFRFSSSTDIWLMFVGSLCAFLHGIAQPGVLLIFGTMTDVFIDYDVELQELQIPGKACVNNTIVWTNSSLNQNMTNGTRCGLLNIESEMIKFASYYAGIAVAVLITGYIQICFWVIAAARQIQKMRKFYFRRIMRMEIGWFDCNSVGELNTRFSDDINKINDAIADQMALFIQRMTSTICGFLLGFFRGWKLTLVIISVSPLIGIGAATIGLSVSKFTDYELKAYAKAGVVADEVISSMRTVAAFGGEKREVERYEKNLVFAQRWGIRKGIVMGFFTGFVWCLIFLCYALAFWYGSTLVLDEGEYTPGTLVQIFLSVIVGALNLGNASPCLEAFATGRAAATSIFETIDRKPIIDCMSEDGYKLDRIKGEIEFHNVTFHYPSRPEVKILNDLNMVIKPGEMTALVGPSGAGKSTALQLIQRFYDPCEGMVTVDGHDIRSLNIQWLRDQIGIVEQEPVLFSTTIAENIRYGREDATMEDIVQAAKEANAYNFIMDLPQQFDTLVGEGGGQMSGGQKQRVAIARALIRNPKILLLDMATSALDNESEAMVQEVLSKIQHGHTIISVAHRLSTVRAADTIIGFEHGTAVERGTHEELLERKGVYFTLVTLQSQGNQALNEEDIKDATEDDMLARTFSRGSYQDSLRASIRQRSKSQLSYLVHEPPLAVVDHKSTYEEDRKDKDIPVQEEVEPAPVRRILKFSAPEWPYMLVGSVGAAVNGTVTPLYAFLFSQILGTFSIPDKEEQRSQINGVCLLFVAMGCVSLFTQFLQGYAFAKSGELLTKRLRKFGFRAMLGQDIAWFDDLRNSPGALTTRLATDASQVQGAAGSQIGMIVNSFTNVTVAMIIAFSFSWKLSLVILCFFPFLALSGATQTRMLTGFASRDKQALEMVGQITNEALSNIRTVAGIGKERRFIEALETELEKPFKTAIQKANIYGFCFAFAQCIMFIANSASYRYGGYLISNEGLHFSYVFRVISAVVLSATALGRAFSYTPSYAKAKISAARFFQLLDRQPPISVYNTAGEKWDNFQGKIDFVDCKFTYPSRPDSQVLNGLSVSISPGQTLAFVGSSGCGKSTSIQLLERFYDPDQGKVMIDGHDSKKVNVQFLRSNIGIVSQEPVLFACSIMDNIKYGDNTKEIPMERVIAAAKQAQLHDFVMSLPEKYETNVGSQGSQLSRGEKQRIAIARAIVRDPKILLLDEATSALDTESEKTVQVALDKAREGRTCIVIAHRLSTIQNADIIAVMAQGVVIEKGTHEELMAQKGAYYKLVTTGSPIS
UniProt Q92887: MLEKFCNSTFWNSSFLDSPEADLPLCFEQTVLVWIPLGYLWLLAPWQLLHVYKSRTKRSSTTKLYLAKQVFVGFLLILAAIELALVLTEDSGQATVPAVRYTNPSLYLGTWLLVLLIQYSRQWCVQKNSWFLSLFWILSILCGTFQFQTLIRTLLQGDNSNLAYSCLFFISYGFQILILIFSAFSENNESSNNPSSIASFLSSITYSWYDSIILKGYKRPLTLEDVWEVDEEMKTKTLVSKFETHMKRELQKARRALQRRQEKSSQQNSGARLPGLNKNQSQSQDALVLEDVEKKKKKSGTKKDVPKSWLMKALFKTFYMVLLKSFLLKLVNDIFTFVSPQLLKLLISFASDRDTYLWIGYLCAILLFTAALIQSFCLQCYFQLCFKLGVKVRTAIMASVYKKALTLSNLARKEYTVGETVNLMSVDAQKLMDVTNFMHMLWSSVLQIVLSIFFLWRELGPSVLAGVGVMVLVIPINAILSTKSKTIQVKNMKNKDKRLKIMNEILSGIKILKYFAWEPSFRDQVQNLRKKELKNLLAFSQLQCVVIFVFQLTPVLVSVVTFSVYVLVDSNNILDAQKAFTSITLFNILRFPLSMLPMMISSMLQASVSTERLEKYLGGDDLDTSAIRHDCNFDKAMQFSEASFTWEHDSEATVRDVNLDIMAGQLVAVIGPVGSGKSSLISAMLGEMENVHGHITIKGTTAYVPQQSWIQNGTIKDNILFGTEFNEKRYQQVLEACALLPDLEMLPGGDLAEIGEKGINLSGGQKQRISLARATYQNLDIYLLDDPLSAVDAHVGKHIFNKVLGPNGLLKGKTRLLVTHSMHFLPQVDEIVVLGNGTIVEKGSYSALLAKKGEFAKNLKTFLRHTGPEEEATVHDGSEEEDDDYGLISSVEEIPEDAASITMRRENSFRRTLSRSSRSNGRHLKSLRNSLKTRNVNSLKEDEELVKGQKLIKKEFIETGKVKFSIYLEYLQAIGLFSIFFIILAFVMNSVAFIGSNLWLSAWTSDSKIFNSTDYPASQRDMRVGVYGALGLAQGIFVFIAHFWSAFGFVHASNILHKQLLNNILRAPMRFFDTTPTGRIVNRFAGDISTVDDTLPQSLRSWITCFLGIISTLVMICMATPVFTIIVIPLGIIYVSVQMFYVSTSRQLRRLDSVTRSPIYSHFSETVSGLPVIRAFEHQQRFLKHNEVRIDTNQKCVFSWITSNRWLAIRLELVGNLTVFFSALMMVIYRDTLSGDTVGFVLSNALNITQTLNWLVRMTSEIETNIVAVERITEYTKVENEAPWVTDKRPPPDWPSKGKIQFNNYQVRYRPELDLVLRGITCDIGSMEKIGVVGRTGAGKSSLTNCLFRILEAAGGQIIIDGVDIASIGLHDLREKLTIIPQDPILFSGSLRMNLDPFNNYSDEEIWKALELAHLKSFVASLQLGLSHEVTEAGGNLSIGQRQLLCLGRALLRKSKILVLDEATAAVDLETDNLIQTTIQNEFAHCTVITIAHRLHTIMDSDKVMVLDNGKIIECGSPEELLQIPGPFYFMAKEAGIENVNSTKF
UniProt O15438: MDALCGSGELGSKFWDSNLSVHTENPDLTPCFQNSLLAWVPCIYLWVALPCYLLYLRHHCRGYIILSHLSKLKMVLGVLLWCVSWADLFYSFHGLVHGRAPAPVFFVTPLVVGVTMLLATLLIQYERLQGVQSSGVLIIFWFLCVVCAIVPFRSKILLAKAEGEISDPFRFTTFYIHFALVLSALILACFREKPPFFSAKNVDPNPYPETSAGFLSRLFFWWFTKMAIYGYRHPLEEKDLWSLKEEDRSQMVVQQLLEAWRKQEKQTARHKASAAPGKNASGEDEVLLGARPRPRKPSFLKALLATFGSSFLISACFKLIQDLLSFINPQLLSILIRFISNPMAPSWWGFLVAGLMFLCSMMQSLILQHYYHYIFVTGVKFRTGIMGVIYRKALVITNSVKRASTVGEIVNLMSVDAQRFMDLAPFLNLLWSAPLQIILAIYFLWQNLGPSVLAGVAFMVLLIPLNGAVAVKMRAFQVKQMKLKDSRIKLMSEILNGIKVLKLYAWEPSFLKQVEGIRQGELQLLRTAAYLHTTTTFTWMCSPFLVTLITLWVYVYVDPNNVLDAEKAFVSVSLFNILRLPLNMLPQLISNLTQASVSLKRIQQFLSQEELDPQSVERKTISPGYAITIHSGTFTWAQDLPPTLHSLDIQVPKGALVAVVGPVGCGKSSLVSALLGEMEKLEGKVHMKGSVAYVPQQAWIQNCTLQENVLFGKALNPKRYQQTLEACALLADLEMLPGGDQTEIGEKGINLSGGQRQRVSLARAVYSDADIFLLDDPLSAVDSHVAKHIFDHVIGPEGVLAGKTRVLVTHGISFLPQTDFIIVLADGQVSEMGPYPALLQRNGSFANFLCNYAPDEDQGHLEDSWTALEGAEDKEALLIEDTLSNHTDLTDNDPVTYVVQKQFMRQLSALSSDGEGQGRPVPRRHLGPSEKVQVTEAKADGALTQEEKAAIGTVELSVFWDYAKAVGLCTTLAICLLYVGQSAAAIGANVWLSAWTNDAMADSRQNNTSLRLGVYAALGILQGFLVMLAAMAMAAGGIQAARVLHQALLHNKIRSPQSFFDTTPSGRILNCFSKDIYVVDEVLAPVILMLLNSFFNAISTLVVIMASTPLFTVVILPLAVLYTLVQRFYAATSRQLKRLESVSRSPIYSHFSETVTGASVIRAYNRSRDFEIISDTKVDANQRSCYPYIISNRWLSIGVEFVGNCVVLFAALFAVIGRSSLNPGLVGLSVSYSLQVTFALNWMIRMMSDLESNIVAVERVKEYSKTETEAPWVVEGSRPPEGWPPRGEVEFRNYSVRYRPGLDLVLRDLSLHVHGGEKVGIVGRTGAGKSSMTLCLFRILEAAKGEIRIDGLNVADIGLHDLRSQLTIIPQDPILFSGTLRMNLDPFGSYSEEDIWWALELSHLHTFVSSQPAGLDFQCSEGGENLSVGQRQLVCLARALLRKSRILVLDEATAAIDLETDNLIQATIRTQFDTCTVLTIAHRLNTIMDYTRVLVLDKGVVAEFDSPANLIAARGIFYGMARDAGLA

How the values were obtained:
[1] = target: Bile salt export pump (Homo sapiens, UniProt O95342); assay type: ADME, cell-based
[2] = target: ATP-binding cassette sub-family C member 2 (Homo sapiens, UniProt Q92887)
[3] = target: ATP-binding cassette sub-family C member 3 (Homo sapiens, UniProt O15438); assay type: ADME, cell-based

For `CCN(CC)CC(=O)Nc1c(C)cccc1C` [LIDOCAINE], the IC50 [1] was > 133 µM.

`C[C@](N)(Cc1ccc(O)c(O)c1)C(=O)O` was tested, and the IC50 [2] was 64.2 µM.

With `Cn1c(=O)c2c(ncn2C)n(C)c1=O` [CAFFEINE] the IC50 [3] was > 133 µM.
